# AlphaSeq binding of Ab-91 heavy chain variants to a spike HR2 peptide

Target: peptide PDVDLGDISGINAS, taken from heptad repeat 2 (HR2) of SARS-CoV-2 spike.

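In library AAYL51, one, two or three CDR residues were substituted; doubles and triples were drawn at random. The assay is AlphaSeq: two haploid yeast populations carry antibody and antigen on their surface. Pairs that bind mate more often; barcode pairs of the diploids are counted by sequencing. Each replicate has its own calibration line, from reference interactions of the BCL2 family. Each pool was mated in three replicate cultures.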

The variants keep the light chain, the linker and the frameworks of Ab-91 (scFv order VL, three GGGGS repeats, VH).
VL: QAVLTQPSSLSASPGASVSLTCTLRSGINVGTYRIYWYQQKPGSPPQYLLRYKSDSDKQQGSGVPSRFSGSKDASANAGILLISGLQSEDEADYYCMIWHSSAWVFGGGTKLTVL
VH: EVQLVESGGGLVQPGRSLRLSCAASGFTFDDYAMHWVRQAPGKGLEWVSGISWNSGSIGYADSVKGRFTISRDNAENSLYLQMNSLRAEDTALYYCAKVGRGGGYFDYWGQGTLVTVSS

Each variant is given by its three heavy chain CDRs, as the data file delimits them; those of the parent are GFTFDDYAMH, GISWNSGSIGYADSVK, VGRGGGYFDY. The Kd shown is the geometric mean over detected replicates; a lower Kd is a better binder. "nd" means that the variant was in the library but no mating with the target was seen in any replicate; the authors take this as a sign of poor binding, and no number exists. As a blank, each scFv also met three strains without target: over library AAYL51, 21% of these pairings were detected, typically at 34 µM and seldom below 1.8 µM. The control count says in how many pairings with the empty strains this scFv gave a signal. For reference, the parent read 72 nM as the reference entry and 7.5 nM as a member of this library.

CDR-H1,CDR-H2,CDR-H3,Kd,detected,control signals
GFTFCDYAMH,GISWNSGSIGYADHVK,VGRGYGYFDY,160 µM,3/3,4/9
WFTFDDYAMH,GISVNSGSIGYADSVK,VGRGLGYFDY,nd,0/3,0/9
GFTFDDYAMH,GCSWNSGSIGYADSGK,VGRGGGYFCY,nd,0/3,1/9
GFTFDDYAMH,GISWISGSIGYCDSVK,VGMGGGYFDY,nd,0/3,0/9
AFTSDDYAMH,GISWNSGSIGYADSVK,VGRGGGYFDY,14 µM,2/3,3/9
GFTFDDYAMH,EISWNSGSIMYADSVK,VGRGGGYFDT,80 µM,1/3,5/9
IFTFDDYAMH,GISGNSGSIGYADSVK,AGRGGGYFDY,nd,0/3,0/9
GFTFDDYAMH,GLSWNSGSLGRADSVK,VGRGGGYFDY,410 µM,2/3,5/9
GFTFDDYAMH,GISWNSGSIGYADWVV,VGRGGGYFDY,410 nM,3/3,2/9
GFTFDDYAMH,GISWNSGSIGYRDSVK,KGRGGGYFRY,4.6 µM,1/3,3/9
GFTFDDYAMH,GISWNSGSIGYFDSVS,VGRGGGYFLY,nd,0/3,0/9
GFTVDDYAMH,GISWNSGSIGYADSVC,VGRGGGYFDY,20 µM,2/3,5/9
QFTFDDYAMH,GISWNSGSIGYADSVK,VGRGGNYFDG,8.6 µM,3/3,1/9
GFTFDDYAMH,GISWNSSSIGYADSVK,ADRGGGYFDY,610 nM,3/3,6/9
GFTFDDYAMH,GISWNSESIGYADSVK,VGRTMGYFDY,1.9 mM,1/3,3/9
GFTFDDYAMH,GISWNSGSDGEADSVK,VGRGGKYFDY,10 µM,1/3,1/9
GFYFDDYAMH,GISWNSGSKGYADSVK,VGRMGGYFDY,64 nM,3/3,7/9
GFTFDDYTMH,GISWNSGSNGYYDSVK,VGRGGGYFDY,nd,0/3,0/9
GFTFDDYAMH,GIGWNSGSIPYADSVN,VGRGGGYFDY,nd,0/3,0/9
GFTFDMYAMH,GISWNSGSIGYADSVK,MGRGGGCFDY,3.5 nM,3/3,4/9
GFTFDDYAMH,GICWNEGSIGYASSVK,VGRGGGYFDY,nd,0/3,0/9
GFTFDDYAMH,GFSWNSGSIGYADSAK,VGRGGGYFDY,68 µM,1/3,1/9
FFTFDDYAMH,TISWNSGSIGYADSVK,VGVGGGYFDY,nd,0/3,0/9
DFTFDDYAMH,GIYWLSGSIGYADSVK,VGRGGGYFDY,nd,0/3,1/9
GFTFDDYVMH,GISWNSGKIGYADTVK,VGRGGGYFDY,nd,0/3,3/9
GFTFDNYAMH,GISWNSGSIGKADSVV,VGRGGGYFDY,nd,0/3,1/9
GITFDDYAMH,GISWNSGSIGYADSVK,VGREGGYRDY,17 µM,3/3,4/9
GFTFDDYAMH,GISWNSGSIGYAISVK,NGRGGGYFDY,nd,0/3,0/9
VTTFDDYMMH,GISWNSGSIGYADSVK,VGRGGGYFDY,nd,0/3,2/9
GFTFDDYASH,GISWNSGSIGTADSVK,VGRNGGYFDY,52 µM,3/3,1/9
GFTLDDYAMH,GISWNSGSIGYADSVK,AERGGGYFDY,nd,0/3,2/9
GFTFDDYAMH,GISRNSGSPGYRDSVK,VGRGGGYFDY,23 µM,1/3,3/9
GFTFDDYAMH,HISWNFGSIGYADSVK,VGRGGYYFDY,nd,0/3,0/9
GFEFDDYAMH,GIHWNSGSIGYADSVK,VGRGGGYFDY,62 µM,1/3,2/9
GFTFDDYAMH,GIKWNHGSITYADSVK,VGRGGGYFDY,140 µM,3/3,1/9
GFTFDDYAMI,GISWNSGSAGYACSVK,VGRGGGYFDY,nd,0/3,0/9
GFTFDDYAMH,GISWNSGSIGYADSVK,VGLGPGAFDY,nd,0/3,2/9
GFFFDDYAMH,GRSWNSGSIGYADSVK,VGRGGGYFDG,nd,0/3,0/9
GFTFDDYAMH,GISWNSGSIEYADSVD,VGRGGGYFDY,23 µM,1/3,2/9
GFTFDDYAMV,GIIWNSFSIGYADSVK,VGRGGGYFDY,nd,0/3,1/9
GFTFDDYAMH,GISWNSGNIGYADSVK,VDRGGGYFDY,2.4 µM,3/3,7/9
KFTFDDYAMH,GISWISGSIGYADSVK,VGRGGGYKDY,8.8 µM,2/3,0/9
GFTFDDYAME,GISWNCGSIGYADSVK,VGRGGGYFIY,13 µM,2/3,3/9
GFTFDDYAMV,GISWNSGSIGYADSVK,VGRGGGYADY,6.0 µM,1/3,1/9
GFTFDCNAMH,GISWNSNSIGYADSVK,VGRGGGYFDY,31 nM,3/3,1/9
GFTFDDYAMH,GISWNSGWMGYAMSVK,VGRGGGYFDY,6.0 µM,1/3,0/9
GFTFDDYAMH,GNSWNYGSIGYADSVK,VRRGGGYFDY,nd,0/3,0/9
GFTFDDYPMH,GISNNSGSIGYADSVK,VGRGGGYFDE,530 nM,3/3,3/9
GKTFDDYAEH,GISWNSGSIGYAWSVK,VGRGGGYFDY,nd,0/3,0/9
GWTFDDYAMH,GISFNSESIGYADSVK,VGRGGGYFDY,47 µM,3/3,4/9
GLTFDDYAMH,AISWNSGSIGYADSVK,VGRGGGYFDY,nd,0/3,4/9
GFFFDDYAMH,GISWGSGSIGYADSVK,VGRGGGYFTY,nd,0/3,1/9
GFTFDEMAMH,GISWNSGSIPYADSVK,VGRGGGYFDY,47 µM,1/3,3/9
GFRFDDYAMH,GISWNSGSIGYADSVK,AGRGGGKFDY,65 µM,2/3,1/9
GFTFDCYAMH,GKSWNSGSIGYADNVK,VGRGGGYFDY,nd,0/3,1/9
KFTFDDYAME,GISWNSGSIGYADSVK,VGRGGGYFDY,53 µM,2/3,5/9
GFTFDTYAMH,GIVWNSGSIGYADSVK,VGRGGGYPDY,nd,0/3,0/9
GMTFDDYAMH,WISWNSGSIAYADSVK,VGRGGGYFDY,200 µM,3/3,7/9
GFTFDDGAMH,GISWNSGSINYADSVK,VGRGGGYFDY,nd,0/3,0/9
GFFFDDYIMH,GISWNSGSIGYADSVY,VGRGGGYFDY,78 µM,3/3,4/9
GFTFDDYAMH,GISWNVGSIMYADSVK,VGRGGFYFDY,84 µM,1/3,1/9
GFTKDMYAMH,GISWNSGSIGYADSVK,VGRGGGYFDN,8.2 µM,3/3,0/9
GFTFDDYSMH,GISWNSGSRGYADSVK,RGRGGGYFDY,85 µM,3/3,6/9
GFTFDDYAMH,GISWVSGSIGWADSWK,VGRGGGYFDY,nd,0/3,2/9
GFTFKDYAMH,GISWNMGSISYADSVK,VGRGGGYFDY,30 µM,1/3,2/9
GFLFDVYAMH,GISWNSGSIGYADSVK,VGRGGGYFAY,nd,0/3,1/9
GMTFDDYAMH,GISSNSGSKGYADSVK,VGRGGGYFDY,nd,0/3,0/9
GFTMDDYAMH,GISWNSGSITYADSVK,VGRIGGYFDY,nd,0/3,0/9
GFTFDDYAMH,AISWNSGSIGYKDSVK,VYRGGGYFDY,1.5 mM,1/3,1/9

Picked from the list: the 8 lowest averages where every replicate gave a value.

CDR-H1,CDR-H2,CDR-H3,Kd,detected,control signals
GFTFDMYAMH,GISWNSGSIGYADSVK,MGRGGGCFDY,3.5 nM,3/3,4/9
GFTFDCNAMH,GISWNSNSIGYADSVK,VGRGGGYFDY,31 nM,3/3,1/9
GFYFDDYAMH,GISWNSGSKGYADSVK,VGRMGGYFDY,64 nM,3/3,7/9
GFTFDDYAMH,GISWNSGSIGYADWVV,VGRGGGYFDY,410 nM,3/3,2/9
GFTFDDYPMH,GISNNSGSIGYADSVK,VGRGGGYFDE,530 nM,3/3,3/9
GFTFDDYAMH,GISWNSSSIGYADSVK,ADRGGGYFDY,610 nM,3/3,6/9
GFTFDDYAMH,GISWNSGNIGYADSVK,VDRGGGYFDY,2.4 µM,3/3,7/9
GFTKDMYAMH,GISWNSGSIGYADSVK,VGRGGGYFDN,8.2 µM,3/3,0/9

Reference: Engelhart et al. 2022, doi:10.1038/s41597-022-01779-4. File: FLAb, binding data.